Source: paper PMC12802937

Sequences of proteins named here, by UniProt entry; tags and fusion partners are left off. Residues count along the entry.
UniProt Q02796, 261-332 D312K: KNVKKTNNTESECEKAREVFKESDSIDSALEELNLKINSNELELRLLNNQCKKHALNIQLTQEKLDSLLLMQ
UniProt Q02796, 261-332 D287K: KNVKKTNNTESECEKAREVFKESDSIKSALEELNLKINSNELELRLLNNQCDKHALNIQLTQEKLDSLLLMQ
UniProt Q02796, 261-332 E278K/E282K: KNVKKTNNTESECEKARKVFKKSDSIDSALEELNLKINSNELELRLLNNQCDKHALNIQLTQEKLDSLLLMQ
UniProt Q02796, 261-332: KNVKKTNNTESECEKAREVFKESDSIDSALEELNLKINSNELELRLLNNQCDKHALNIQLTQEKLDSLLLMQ

Legend:
Assay in all cases: SPR; Lge1-CT immobilised on a CM5 chip, Bre1-LR flown over; Biacore 8K, 25°C, 20 mM HEPES (pH 7.5), 200 mM sodium chloride, 0.02% Tween 20
[1] = molecular target: Lge1-CT D312K (budding yeast) (UniProt Q02796)
[2] = molecular target: Lge1-CT D287K (budding yeast) (UniProt Q02796)
[3] = molecular target: Lge1-CT E278K/E282K (budding yeast) (UniProt Q02796)
[4] = molecular target: Lge1-CT (Lge1 residues 261–332), intein-chitin binding domain (CBD) tag construct (budding yeast) (UniProt Q02796)

Row | koff [1] [s⁻¹] | kon [1] [M⁻¹ s⁻¹] | koff [2] [s⁻¹] | kon [2] [M⁻¹ s⁻¹] | koff [3] [s⁻¹] | kon [3] [M⁻¹ s⁻¹] | koff [4] [s⁻¹] | kon [4] [M⁻¹ s⁻¹] | Substance
1 | 0.00138 | 53400 | 0.00921 | 63500 | 0.00548 | 57300 |  |  | Bre1-LR (Bre1 residues 227–700, LBD and RING domains), 6× histidine tag (from UniProt Q07457 227-700) (domain or fragment)
2 |  |  |  |  |  |  | 0.00425 | 56300 | Bre1-LR D389K/D390K (from UniProt Q07457 227-700) (domain or fragment)
3 |  |  |  |  |  |  | 0.00216 | 52900 | Bre1-LR I397K (from UniProt Q07457 227-700) (domain or fragment)
